Laboratory results as given in patent US20030171347A1, “Sigma receptor antagonists having anti-cocaine properties and uses thereof” (priority 1998, published 2003).

The compounds below were run on Male, Swiss Webster mice (assay: Attenuation of cocaine-induced lethality, pre-treatment). Conditions: agonist 30 mg/kg i.p. 15 min before cocaine 125 mg/kg i.p.
Assay type: in vivo
`CC(C)=CCN1CCC2(C)c3cc(O)ccc3CC1C2C` (single isomer, unassigned; (+)) [(+)-Pentazocine, reference compound] was tested, and the “protection against cocaine-induced lethality by sigma receptor agonists” value was “failed to protect against the lethal effects of cocaine”.

Same assay, conditions: historic sigma compounds 0-60 mg/kg i.p. 15 min before cocaine 125 mg/kg i.p.
With `OC(CCCN1CCN(c2ncc(F)cn2)CC1)c1ccc(F)cc1` (stereo not drawn) [BMY14802, reference compound] the “attenuation of cocaine-induced lethality (proportion of mice dying)” value (“attenuation of cocaine-induced lethality” below) was “significant attenuation”. For `O=C(CCCN1CCC(O)(c2ccc(Cl)cc2)CC1)c1ccc(F)cc1` [Haloperidol], the “attenuation of cocaine-induced lethality” value was “significant attenuation”. With `C=CCN1CC[C@]23c4c5ccc(O)c4O[C@H]2C(=O)CC[C@@]3(O)[C@H]1C5` [Naloxone] the “attenuation of cocaine-induced lethality” value was “ineffective”. In the case of `OC(CCCN1CCC(O)(c2ccc(Cl)cc2)CC1)c1ccc(F)cc1` (stereo not drawn) [Reduced haloperidol], the “attenuation of cocaine-induced lethality” value is reported as “significant attenuation”. For `C[C@@H]1CN(CCCn2c3ccccc3c3ccccc32)C[C@H](C)N1` [Rimcazole, reference compound], the “attenuation of cocaine-induced lethality” value was “ineffective”.

Same assay, conditions: ligand 0-30 mg/kg i.p. 15 min before cocaine 125 mg/kg i.p.; observed 30 min
In the case of `CN(C)CCN(C)CCc1ccc(Cl)c(Cl)c1` [BD1047], the “attenuation of cocaine-induced lethality” value is reported as “significant attenuation”. `CN1CCN(CCc2ccc(Cl)c(Cl)c2)CC1` [BD1063] was tested, and the “attenuation of cocaine-induced lethality” value was “significant attenuation”.

The compounds below were run on Male, Swiss Webster mice (assay: Attenuation of cocaine-induced locomotor activity). Conditions: BD1008 1 mg/kg i.p. or BD1063 30 mg/kg i.p. 15 min before cocaine 0-20 mg/kg i.p.
Assay type: in vivo
In the case of `CN1CCN(CCc2ccc(Cl)c(Cl)c2)CC1` [BD1063], the “ED50 for the locomotor stimulatory effects of cocaine in the presence of the ligand” value is reported as 16 mg/kg, i.p.

These compounds were tested on Male, Swiss Webster mice (assay: Attenuation of cocaine-induced convulsions, systemic pre-treatment). Conditions: ligand 0-30 mg/kg i.p. 15 min before cocaine 60 mg/kg i.p.; observed 30 min; Fisher's exact test.
With `COc1cccc(CC(=O)N(C)CCN2CCCC2)c1` [YZ-005] the “attenuation of cocaine-induced convulsions (proportion of mice convulsing)” value (from here on “attenuation … (proportion of mice convulsing)”) was “ineffective”. In the case of `COc1ccc(CC(=O)N(C)CCN2CCCC2)cc1` [YZ-007], the “attenuation … (proportion of mice convulsing)” value is reported as “ineffective”. `COc1ccccc1CC(=O)N(C)CCN1CCCC1` [YZ-008] was tested, and the “attenuation … (proportion of mice convulsing)” value was “ineffective”. `CN(CCc1ccc(N)cc1)CCN1CCCC1` [YZ-030] was tested, and the “attenuation … (proportion of mice convulsing)” value was “intermediate protection”. In the case of `CN(CCc1ccccc1N)CCN1CCCC1` [YZ-032], the “attenuation … (proportion of mice convulsing)” value is reported as “intermediate protection”. In the case of `CN(CCc1cccc(N)c1)CCN1CCCC1` [YZ-033], the “attenuation … (proportion of mice convulsing)” value is reported as “intermediate protection”. In the case of `COc1ccccc1CC(=O)N1CCN(CCCc2ccccc2)CC1` [YZ-048-2], the “attenuation … (proportion of mice convulsing)” value is reported as “significantly attenuated cocaine-induced convulsions”. In the case of `COc1ccc(CC(=O)N2CCN(CCCc3ccccc3)CC2)cc1` [YZ-051-2], the “attenuation … (proportion of mice convulsing)” value is reported as “significantly attenuated cocaine-induced convulsions”. In the case of `COc1ccc(CCN2CCN(CCCc3ccccc3)CC2)cc1` [YZ-067-2], the “attenuation … (proportion of mice convulsing)” value is reported as “significantly attenuated cocaine-induced convulsions”. `Clc1ccc(CCN2CCN(CCCc3ccccc3)CC2)cc1Cl` [YZ-069-2] was tested, and the “attenuation … (proportion of mice convulsing)” value was “significantly attenuated cocaine-induced convulsions”. With `COc1cccc(CCN2CCN(C(=O)Cc3cccc(OC)c3)CC2)c1` [YZ-085-2] the “attenuation … (proportion of mice convulsing)” value was “significantly attenuated cocaine-induced convulsions”. `NCCN1CCN(CCCc2ccccc2)CC1` [YZ-136-2] was tested, and the “attenuation … (proportion of mice convulsing)” value was “significantly attenuated cocaine-induced convulsions”. `O=C(Cc1ccc([N+](=O)[O-])cc1)N1CCN(CCCc2ccccc2)CC1` [YZ-155-2] was tested, and the “attenuation … (proportion of mice convulsing)” value was “significantly attenuated cocaine-induced convulsions”. `Nc1ccccc1CCN1CCN(CCCc2ccccc2)CC1` [YZ-165-2-2] was tested, and the “attenuation … (proportion of mice convulsing)” value was “significantly attenuated cocaine-induced convulsions”. In the case of `COc1ccccc1CCN1CCN(CCCc2ccccc2)CC1` [YZ-184-2], the “attenuation … (proportion of mice convulsing)” value is reported as “significantly attenuated cocaine-induced convulsions”.
